# Results reported in PubChem BioAssay AID1511 (Johns Hopkins Ion Channel Center, 2009).
# Chains of the proteins cited; added tags and fusions are not shown.
# UniProt Q12809, whole entry: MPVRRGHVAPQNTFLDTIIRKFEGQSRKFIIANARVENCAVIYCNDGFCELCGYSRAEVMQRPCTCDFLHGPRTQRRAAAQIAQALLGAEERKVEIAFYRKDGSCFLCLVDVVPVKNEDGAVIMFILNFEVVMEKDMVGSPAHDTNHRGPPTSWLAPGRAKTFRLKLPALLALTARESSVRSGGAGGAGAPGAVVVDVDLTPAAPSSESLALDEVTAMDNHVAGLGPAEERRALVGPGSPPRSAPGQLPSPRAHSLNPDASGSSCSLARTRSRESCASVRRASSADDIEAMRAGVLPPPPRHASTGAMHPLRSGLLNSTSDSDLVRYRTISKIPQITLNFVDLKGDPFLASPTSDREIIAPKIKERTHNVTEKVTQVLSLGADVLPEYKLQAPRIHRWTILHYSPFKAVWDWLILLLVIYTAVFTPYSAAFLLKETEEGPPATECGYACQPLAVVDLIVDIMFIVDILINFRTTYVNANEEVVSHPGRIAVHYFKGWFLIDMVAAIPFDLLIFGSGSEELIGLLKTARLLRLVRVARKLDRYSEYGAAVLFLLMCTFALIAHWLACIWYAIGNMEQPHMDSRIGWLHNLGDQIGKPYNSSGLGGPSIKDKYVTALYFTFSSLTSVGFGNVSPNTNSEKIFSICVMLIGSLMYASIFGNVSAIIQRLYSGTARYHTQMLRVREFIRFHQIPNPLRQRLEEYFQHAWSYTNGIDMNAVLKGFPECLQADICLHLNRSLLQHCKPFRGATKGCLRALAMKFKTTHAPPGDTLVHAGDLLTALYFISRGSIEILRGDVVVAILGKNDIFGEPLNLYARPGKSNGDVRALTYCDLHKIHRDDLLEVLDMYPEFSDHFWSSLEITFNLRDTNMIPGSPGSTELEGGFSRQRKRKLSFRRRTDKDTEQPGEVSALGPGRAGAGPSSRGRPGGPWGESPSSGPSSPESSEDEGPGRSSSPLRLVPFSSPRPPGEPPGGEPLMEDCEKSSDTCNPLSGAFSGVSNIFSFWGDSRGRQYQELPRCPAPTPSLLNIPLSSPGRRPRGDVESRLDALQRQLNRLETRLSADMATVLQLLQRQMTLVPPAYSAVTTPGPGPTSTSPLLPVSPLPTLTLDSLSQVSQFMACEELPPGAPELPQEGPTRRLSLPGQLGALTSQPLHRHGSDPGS
# The list shows a part of the results, in another mix than the full data. Activity calls are given as the source filed them.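 How the source made its calls: active means activation above the mean of controls blocked by dofetilide plus 5 SD; inactive means the rest.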
# Biological target: Voltage-gated inwardly rectifying potassium channel KCNH2 (Homo sapiens) (UniProt Q12809)
# Assay: PubChem AID 1511;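 further: thallium influx through hERG after potassium depolarization seen as dye fluorescence rise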
# Conditions: CHO-hERG, FluxOR thallium flux, dofetilide IC70 present; at 10 µM; active compounds read high
row,Compound,"activation (rescue from dofetilide block), less the hit threshold"
1,COP1(=S)c2c(C)nn(CCC#N)c2N=C(c2ccc(F)cc2)N1C (stereo unspecified),inactive: -2.4%
